Target: T1, 2× MBP-BRCA2CT-FLAG-His10 (human, UniProt P51587 2300-3418)
T1 sequence: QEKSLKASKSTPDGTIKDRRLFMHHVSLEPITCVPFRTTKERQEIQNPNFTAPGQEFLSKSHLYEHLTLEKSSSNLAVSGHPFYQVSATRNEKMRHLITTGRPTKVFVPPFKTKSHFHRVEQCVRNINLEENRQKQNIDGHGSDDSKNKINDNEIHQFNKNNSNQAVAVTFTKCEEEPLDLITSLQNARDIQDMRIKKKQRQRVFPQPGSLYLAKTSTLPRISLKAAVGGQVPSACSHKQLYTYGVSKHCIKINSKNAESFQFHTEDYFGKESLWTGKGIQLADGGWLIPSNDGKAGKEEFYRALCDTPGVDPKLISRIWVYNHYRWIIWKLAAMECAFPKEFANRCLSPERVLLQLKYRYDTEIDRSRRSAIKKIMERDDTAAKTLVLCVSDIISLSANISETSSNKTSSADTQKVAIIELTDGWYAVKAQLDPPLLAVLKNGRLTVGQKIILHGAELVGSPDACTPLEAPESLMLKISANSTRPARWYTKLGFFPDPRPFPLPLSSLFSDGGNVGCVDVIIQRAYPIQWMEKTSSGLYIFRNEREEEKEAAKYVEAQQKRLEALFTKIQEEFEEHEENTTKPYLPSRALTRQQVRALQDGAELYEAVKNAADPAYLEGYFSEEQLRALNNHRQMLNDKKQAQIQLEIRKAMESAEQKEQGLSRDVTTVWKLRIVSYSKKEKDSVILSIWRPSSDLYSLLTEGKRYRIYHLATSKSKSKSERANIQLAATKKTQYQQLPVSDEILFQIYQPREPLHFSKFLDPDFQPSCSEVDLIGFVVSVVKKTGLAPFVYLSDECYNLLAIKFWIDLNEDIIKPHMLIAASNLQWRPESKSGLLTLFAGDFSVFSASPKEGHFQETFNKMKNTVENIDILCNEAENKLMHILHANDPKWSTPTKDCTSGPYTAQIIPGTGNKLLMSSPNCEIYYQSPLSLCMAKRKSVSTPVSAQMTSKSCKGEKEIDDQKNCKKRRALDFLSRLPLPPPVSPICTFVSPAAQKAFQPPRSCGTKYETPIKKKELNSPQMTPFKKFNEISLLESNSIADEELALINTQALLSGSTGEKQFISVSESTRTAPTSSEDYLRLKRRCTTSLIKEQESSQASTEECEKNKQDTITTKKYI
Experiment: pull-down

fold reduction of MBP-BRCA2CT bound to GST-BRCA2 with 1.5 μM DSS1: 11 fold
B1: Human DSS1 protein (natural protein)
chain: MSEKKQPVDLGLLEEDDEFEEFPAEDWAGLDEDEDAHVWEDNWDDDNVEDDFSNQLRAELEKHGYKMETS

— paper PMC7641332 (Nucleic Acids Research, 2020)
